Here are results for one compound from publication PMC11188874, “HDAC6 Inhibition Releases HR23B to Activate Proteasomes, Expand the Tumor Immunopeptidome and Amplify T-cell Antimyeloma Activity” (Cancer Research Communications, 2024).

Protein sequences, listed by entry. Tags and fused reporters are not part of them. Lines headed by an entry give the natural chain unless they say otherwise; changes in a name come on top.
UniProt P56524: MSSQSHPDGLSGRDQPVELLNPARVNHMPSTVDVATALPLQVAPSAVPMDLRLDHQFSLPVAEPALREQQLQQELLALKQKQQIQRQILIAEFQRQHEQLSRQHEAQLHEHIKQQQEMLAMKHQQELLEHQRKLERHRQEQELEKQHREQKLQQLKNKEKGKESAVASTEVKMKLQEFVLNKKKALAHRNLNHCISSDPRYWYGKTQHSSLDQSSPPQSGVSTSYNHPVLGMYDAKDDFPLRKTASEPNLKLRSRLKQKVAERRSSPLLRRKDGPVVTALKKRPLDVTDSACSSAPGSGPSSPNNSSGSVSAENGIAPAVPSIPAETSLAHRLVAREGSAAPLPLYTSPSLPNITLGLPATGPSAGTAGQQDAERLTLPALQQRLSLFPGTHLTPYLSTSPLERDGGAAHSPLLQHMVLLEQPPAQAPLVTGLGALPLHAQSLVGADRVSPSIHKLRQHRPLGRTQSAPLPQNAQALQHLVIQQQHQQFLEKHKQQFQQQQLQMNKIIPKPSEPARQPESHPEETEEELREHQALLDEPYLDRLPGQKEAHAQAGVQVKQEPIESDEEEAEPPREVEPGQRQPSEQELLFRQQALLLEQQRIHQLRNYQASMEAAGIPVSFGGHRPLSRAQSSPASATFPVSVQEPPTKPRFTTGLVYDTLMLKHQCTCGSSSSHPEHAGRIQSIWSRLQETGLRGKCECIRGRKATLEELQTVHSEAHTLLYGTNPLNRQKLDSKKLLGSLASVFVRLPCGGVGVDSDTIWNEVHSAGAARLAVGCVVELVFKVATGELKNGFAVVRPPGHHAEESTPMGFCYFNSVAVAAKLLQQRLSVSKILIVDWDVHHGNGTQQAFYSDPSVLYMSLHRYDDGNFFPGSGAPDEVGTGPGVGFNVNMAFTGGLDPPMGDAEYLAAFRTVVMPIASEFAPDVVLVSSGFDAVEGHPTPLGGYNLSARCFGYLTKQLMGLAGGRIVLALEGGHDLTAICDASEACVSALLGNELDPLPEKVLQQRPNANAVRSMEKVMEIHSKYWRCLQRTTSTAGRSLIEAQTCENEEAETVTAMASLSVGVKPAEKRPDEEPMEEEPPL

Broadly, the IC50 is the concentration that inhibits the measured activity by half. Higher therefore signals a need for much substance.

For this assay, the target named is T1, HDAC4 (Homo sapiens, UniProt P56524).
T1 construct: purchased Reaction Biology (Malvern, PA)
Kind of assay: In vitro biochemical activity assay, HDAC4.

In turn, `CN1CCc2c(c3ccccc3n2Cc2ccc(C(=O)NO)cc2)C1` [Tubastatin-A] yielded an IC50 of more than 1000 nM.
